Data taken from patent publication US5270311A (dated 1993).

The chains behind the UniProt entries cited, without tags or fusion partners.
UniProt P47745, whole entry: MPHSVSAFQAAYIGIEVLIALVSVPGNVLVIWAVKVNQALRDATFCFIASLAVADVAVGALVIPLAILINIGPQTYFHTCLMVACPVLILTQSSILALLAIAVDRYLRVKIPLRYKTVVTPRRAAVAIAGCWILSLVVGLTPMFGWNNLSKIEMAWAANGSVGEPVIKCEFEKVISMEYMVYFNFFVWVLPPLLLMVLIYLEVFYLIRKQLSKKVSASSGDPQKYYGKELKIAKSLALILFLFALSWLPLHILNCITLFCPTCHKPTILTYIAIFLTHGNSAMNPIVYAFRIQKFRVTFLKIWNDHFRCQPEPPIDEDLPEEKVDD

Target: adenosine receptor known as A1 (Cavia porcellus, UniProt P47745)
Test: Guinea-pig Atrial Bradycardic Test

Cn1c(=O)c2[nH]cnc2n(C)c1=O [1,3-dimethylxanthine, reference compound]
Kb: ~10 µM
